The source of these data is patent US9266877B2, “Apoptosis-inducing agents for the treatment of cancer and immune and autoimmune diseases” (priority 2011, dated 2016).

The first data set relates to FL5.12 cells transfected with Bcl-XL. Nature of the data set: FL5.12 Cellular Assay (cell viability, CellTiter-Glo). The class given is cell-based. As to conditions: mouse FL5.12 cells transfected with Bcl-XL, IL-3-depleted, 3% FBS assay media, 24 hours; read-out: FL5.12 Bcl-xL, IL3, EC 50.
`Cc1c(-c2ccc(N3CCc4cccc(C(=O)Nc5nc6ccccc6s5)c4C3)nc2C(=O)O)cnn1C[C@@H]1C[C@@H]2C=C[C@H]1C2` [Example 91, 6-[8-(1,3-benzothiazol-2-ylcarbamoyl)-3,4-dihydroisoquinolin-2(1H)-yl]-3-{1-[(1R,2R,4R)-bicyclo[2.2.1]hept-5-en-2-ylmethyl]-5-methyl-1H-pyrazol-4-yl}pyridine-2-carboxylic acid]: the EC50 was found to be 0.03 µM.

System in the next data set: not listed separately
Nature of the data set: Single Dose Pharmacokinetics, oral bioavailability. In kind it is in vivo, Sprague-Dawley rats. As to conditions: Rat p.o. dose, 5 mpk.
Turning to `Cc1c(-c2ccc(N3CCc4cccc(C(=O)Nc5nc6ccccc6s5)c4C3)nc2C(=O)O)cc(C#N)n1CC1(N2CCCCC2)CCCCC1` [Example 131, 6-[8-(1,3-benzothiazol-2-ylcarbamoyl)-3,4-dihydroisoquinolin-2(1H)-yl]-3-(5-cyano-2-methyl-1-{[1-(piperidin-1-yl)cyclohexyl]methyl}-1H-pyrrol-3-yl)pyridine-2-carboxylic acid], the “F (%), dose” value is 11, 5 mpk %.

In the case of `COCCC(c1ccccc1)n1cc(-c2ccc(N3CCc4cccc(C(=O)Nc5nc6ccccc6s5)c4C3)nc2C(=O)O)cn1` (centres unmarked) [Example 93, 6-[8-(1,3-benzothiazol-2-ylcarbamoyl)-3,4-dihydroisoquinolin-2(1H)-yl]-3-[1-(3-methoxy-1-phenylpropyl)-1H-pyrazol-4-yl]pyridine-2-carboxylic acid], the “F (%), dose” value is 33, 5 mpk %.

As to `O=C(Nc1nc2ccccc2s1)c1cccc2c1CN(c1ccc(-c3cnn(Cc4cccc(N5CCCC5)n4)c3)c(C(=O)O)n1)CC2` [Example 22, 6-[8-(1,3-benzothiazol-2-ylcarbamoyl)-3,4-dihydroisoquinolin-2(1H)-yl]-3-(1-{[6-(pyrrolidin-1-yl)pyridin-2-yl]methyl}-1H-pyrazol-4-yl)pyridine-2-carboxylic acid], the “F (%), dose” value is recorded as 27, 5 mpk %.

In the case of `COCCC1(Cn2ncc(-c3ccc(N4CCc5cccc(C(=O)Nc6nc7ccccc7s6)c5C4)nc3C(=O)O)c2C)CCCCC1` [Example 90, 6-[8-(1,3-benzothiazol-2-ylcarbamoyl)-3,4-dihydroisoquinolin-2(1H)-yl]-3-(1-{[1-(2-methoxyethyl)cyclohexyl]methyl}-5-methyl-1H-pyrazol-4-yl)pyridine-2-carboxylic acid], the “F (%), dose” value was 44, 5 mpk %.

In the case of `Cc1c(-c2ccc(N3CCc4cccc(C(=O)Nc5nc6ccccc6s5)c4C3)nc2C(=O)O)cnn1C[C@@H]1C[C@@H]2C=C[C@H]1C2` [Example 91, 6-[8-(1,3-benzothiazol-2-ylcarbamoyl)-3,4-dihydroisoquinolin-2(1H)-yl]-3-{1-[(1R,2R,4R)-bicyclo[2.2.1]hept-5-en-2-ylmethyl]-5-methyl-1H-pyrazol-4-yl}pyridine-2-carboxylic acid], the “F (%), dose” value is 16, 5 mpk %.

With `COCCCC1(Cn2ncc(-c3ccc(N4CCc5cccc(C(=O)Nc6nc7ccccc7s6)c5C4)nc3C(=O)O)c2C)CCCCCC1` [Example 147, 6-[8-(1,3-benzothiazol-2-ylcarbamoyl)-3,4-dihydroisoquinolin-2(1H)-yl]-3-(1-{[1-(3-methoxypropyl)cycloheptyl]methyl}-5-methyl-1H-pyrazol-4-yl)pyridine-2-carboxylic acid], the “F (%), dose” value was 37, 5 mpk %.

Take `O=C(Nc1nc2ccccc2s1)c1cccc2c1CN(c1ccc(-c3cnn(C4CCc5ccccc54)c3)c(C(=O)O)n1)CC2` (centres unmarked) [Example 37, 6-[8-(1,3-benzothiazol-2-ylcarbamoyl)-3,4-dihydroisoquinolin-2(1H)-yl]-3-[1-(2,3-dihydro-1H-inden-1-yl)-1H-pyrazol-4-yl]pyridine-2-carboxylic acid]: the “F (%), dose” value is 29, 5 mpk %.

For `O=C(Nc1nc2ccccc2s1)c1cccc2c1CN(c1ccc(-c3cnn(CC4(C(F)(F)F)CCCCC4)c3)c(C(=O)O)n1)CC2` [Example 74, 6-[8-(1,3-benzothiazol-2-ylcarbamoyl)-3,4-dihydroisoquinolin-2(1H)-yl]-3-(1-{[1-(trifluoromethyl)cyclohexyl]methyl}-1H-pyrazol-4-yl)pyridine-2-carboxylic acid], the “F (%), dose” value is 23, 5 mpk %.

With `O=C(Nc1nc2ccccc2s1)c1cccc2c1CN(c1ccc(-c3cccc(OC4CCCCC4)c3F)c(C(=O)O)n1)CC2` [Example 119, 6-[8-(1,3-benzothiazol-2-ylcarbamoyl)-3,4-dihydroisoquinolin-2(1H)-yl]-3-[3-(cyclohexyloxy)-2-fluorophenyl]pyridine-2-carboxylic acid], the “F (%), dose” value is reported as 54, 5 mpk %.

With `O=C(Nc1nc2ccccc2s1)c1cccc2c1CN(c1ccc(-c3cnn(Cc4ccccc4Cl)c3)c(C(=O)O)n1)CC2` [Example 25, 6-[8-(1,3-benzothiazol-2-ylcarbamoyl)-3,4-dihydroisoquinolin-2(1H)-yl]-3-[1-(2-chlorobenzyl)-1H-pyrazol-4-yl]pyridine-2-carboxylic acid], the “F (%), dose” value is recorded as 24, 5 mpk %.
